Earlier results in paper PMC11503300.

Biological target: VEGF-A165 (Homo sapiens) (UniProt P15692)

- Kd: 3 nM
Substance: Faricimab
